What was measured:
[1] = target: Josephin domain of ataxin-3, mutant Jos_I77KQ78K (human) (UniProt P54252); assay: NMR 1H-15N HSQC peak intensities against time
[2] = target: Josephin domain of ataxin-3, mutant Jos_W87K (human) (UniProt P54252); assay: NMR 1H-15N HSQC peak intensities against time

Substance | half-life time of aggregation [1] | half-life time of aggregation [2]
Josephin domain of ataxin-3, mutant Jos_I77KQ78K (from UniProt P54252 1-182) (domain or fragment) | 154 h | –
Josephin domain of ataxin-3, mutant Jos_W87K (from UniProt P54252 1-182) (domain or fragment) | – | 112 h

Source: publication PMC3005437
